Chains of the proteins cited; added tags and fusions are not shown.
UniProt P14842, whole entry: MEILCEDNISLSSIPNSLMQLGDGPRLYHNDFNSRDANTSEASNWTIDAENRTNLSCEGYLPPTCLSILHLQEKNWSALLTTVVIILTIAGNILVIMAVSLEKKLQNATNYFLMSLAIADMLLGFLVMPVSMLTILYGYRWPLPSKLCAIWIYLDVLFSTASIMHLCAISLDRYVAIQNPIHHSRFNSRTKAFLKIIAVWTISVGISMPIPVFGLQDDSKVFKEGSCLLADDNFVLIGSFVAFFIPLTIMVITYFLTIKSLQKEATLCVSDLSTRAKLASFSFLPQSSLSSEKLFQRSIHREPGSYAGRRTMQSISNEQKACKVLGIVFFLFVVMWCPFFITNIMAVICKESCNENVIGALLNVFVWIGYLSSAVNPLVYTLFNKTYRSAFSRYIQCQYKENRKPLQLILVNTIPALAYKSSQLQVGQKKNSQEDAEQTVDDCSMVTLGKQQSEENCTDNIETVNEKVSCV

According to BindingDB's records for doi:10.1073/pnas.83.22.8784 (The Oregon Health Sciences University, 1986):

Biological target: 5-hydroxytryptamine receptor 2A (Rattus norvegicus, UniProt P14842)

With `Cc1nc2sccn2c(=O)c1CCN1CCC(=C(c2ccc(F)cc2)c2ccc(F)cc2)CC1` the Ki was 5.5 nM.
